Reference: patent US6630316B1, “Method for measurement of lymphocyte function” (priority 1996, dated 2003)

Tested on: T lymphocytes (CD4) in whole blood
Assay: T cell response to mitogens in a whole blood sample (CD4 separation, ATP luminescence)
Type: cell-based
Conditions: whole blood diluted 1:5, incubated overnight at 37 C; PHA at 1%, IL-2 at 1000 U/ml; control 458,451

IL-2
Relative Light Units: 2,632,415 Relative Light Units
